Laboratory results as given in US20220168472A1, “ENZYME-DEGRADABLE HYDROGEL FOR DELIVERY OF A PAYLOAD” (priority 2019, published 2022).

Test system: MMP-8
Assay: Controlled release of FITC-dextran via enzymatic degradation of GelMA/GelMA+ disks by MMP-8
Assay type: physicochemical
Conditions: high methacrylation GelMA patches, PBS or 1 μg/ml MMP-8
Experimental: IRGACURE 2959 Photo Initiator (Sigma-Aldrich) was dissolved in PBS at 60° C. for one hour to make a 0.5% solution. Lyophilized GelMA powder was dissolved in the solution at 60° C. for 2 days to ensure the powder was completely solubilized. FITC-dextran (4 kDa and 70 kDa; Sigma-Aldrich) was added to the GelMA solution to achieve a 5 mg/ml FITC-dextran concentration. The solution was vortexed to ensure homogeneity and centrifuged at 5000 RPM for 5 minutes to remove bubbles. To reverse any physical gelling that may have occurred during the centrifugation step the solution was then heated to 60° C. in an oven. […]
To characterize their enzymatic degradation and resulting release profile, 6 mm diameter GelMA disks were placed in a 24-well plate and incubated at 37° C. […] At the previously defined time points, the collected enzyme solutions were placed in a 48-well plate and stored in −80° C. until ready for quantification. 100 μl of sample solution collected at each time point was transferred to a black 96-well plate and fluorescence was quantified using a plate reader, at a fluorescence excitation of 490 nm and emission of 520 nm. The accumulative release was calculated in Excel using a FITC-dextran calibration curve and graphed using GraphPad Prism 6. […]

Substance	release profile from the hydrogel	time to complete elution from the hydrogel
Fluorescein isothiocyanate (FITC)-dextran [70 kDa FITC-dextran]	concentration and crosslinking-dependent release profile	
Fluorescein isothiocyanate (FITC)-dextran [4 kDa FITC-dextran]		≤ 10 h
